From US20200179319A1, “PHARMACEUTICAL FORMULATIONS AND THEIR USE” (Signum Biosciences, Inc., priority 2016, published 2020)

Experiment: Screening Study (Example 3): sulfoxide formed in API solution with each agent, HPLC
Type: physicochemical
Conditions: 24 hours exposed to air at room temperature, not protected from light
Description: A buffer solution was prepared by adding 0.72 g of Na2HPO4, 0.24 g KH2PO4 and 500 mL of deionized water into a container and mixing.
A solution of each agent in the table below was prepared by adding 500 mg or each agent into a 25 mL volumetric flask and filling the flask to volume by the addition of the prepared buffer solution.
A 6% solution of API was prepared by adding 3.0 g the disodium salt of 4-(((R)-1-carboxy-2-(((2E,6E)-3,7,11-trimethyldodeca-2,6,10-trien-1-yl)thio)ethyl)amino)-4-oxobutanoic acid to a 50 mL volumetric flask and filling the flask to volume by the addition of methanol, followed by mixing.
A screen was performed for each agent as follows: (1) 2.5 mL of the stock solution of API and 2.5 mL of each agent was added into a 100 mL volumetric flask and the contents were mixed (repeated three times for each agent); and (2) allowing each resulting mixture to sit for 24 hours exposed to air at room temperature and not protected from light. A blank solution was prepared (3×) by adding buffer solution into the 100 mL volumetric flask in place of the agent. After 24 hours, each volumetric flask was filled to volume by the addition of methanol, and an aliquot of each mixture was removed and analyzed by HPLC.
The area of the sulfoxide of 4-(((R)-1-carboxy-2-(((2E,6E)-3,7,11-trimethyldodeca-2,6,10-trien-1-yl)thio)ethyl)amino)-4-oxobutanoic acid produced in each solution was calculated as follows: % area sulfoxide=Rsulfoxide/(Rparent+Rsulfoxide), wherein Rsuffoxide=the area under the response of the sulfoxide in the HPLC trace, and Rparent=the area under the response of 4-(((R)-1-carboxy-2-(((2E,6E)-3,7,11-trimethyldodeca-2,6,10-trien-1-yl)thio)ethyl)amino)-4-oxobutanoic acid in the HPLC trace.

% area sulfoxide relative to % area Control: 0.149 | (% area sulfoxide for each agent/% area sulfoxide in Blank): About 1 | Average % area sulfoxide for 3 runs per agent (API disodium salt solution plus agent): 1.126%
Substance: D-α-Tocopherol polyethylene glycol succinate
